Two proteins from patent publication US20260201352 can be followed below.

The series has as its target T1, nanopore protein CsgG-Eco-(Y51A/F56Q/R97W/R192D-StrepII (C)), P0AEA2.
T1 chain: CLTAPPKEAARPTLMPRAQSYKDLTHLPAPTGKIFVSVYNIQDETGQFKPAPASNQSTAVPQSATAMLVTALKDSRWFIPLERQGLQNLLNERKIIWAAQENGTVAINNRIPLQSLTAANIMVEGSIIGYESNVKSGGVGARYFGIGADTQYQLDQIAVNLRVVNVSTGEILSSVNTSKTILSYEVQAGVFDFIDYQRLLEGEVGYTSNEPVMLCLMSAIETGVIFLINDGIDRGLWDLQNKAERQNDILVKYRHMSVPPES

B1: BCH105-33 (protein)
chain: MKHDLSSATEEQRYIFTDFIKQAQLALKGDSDYEVFAIQGFAGSGKTWLSALIIDELLELGMKVAVTSPTHKAVRVSLNMLKNNGIDTNSPLMYPGTIHHFLNLKLDHGFADDGTADNCTTKAKLVVNKFNEALEYVDVLIVDEASMVSGELYDHALKTLGDRAKIILFIGDSYQLLPVDDEDSSIFLKDDIFHYKLTSVVRQAEDNIIIAKSQELIKAMDQKTYYPSVNDYFVNITEDTEGIKLLKSNVELFELYFSDFKDKMTGAYTNKVVNQFNEYIRYTLYQETKFIADKDELVFQETYTDSKGNIIVSNGEIIEVATAKLTTDIDKFKIWKIVSKKNELGEAVRFNVLDPSSYNEFNDLLDKYCADAKIAKGYDRSKAWKKYFKLKEKYAKVRYNFSSTIHKLQGSTYQNMYFDMRGLDYFYRMNRDNVLRLVYVGITRASDQVFILQD
Turning to B1, the Speed (nt/s) is 358 nt/s.

B2: BCH105-72 (protein)
chain: MKHDLSSATEEQRYIFTDFIKQAQLALKGDSDYEVFAIQGFAGSGKTWLSALIIDELLELGMKVAVTSPTHKAVRVSLNMLKNNGIDTNSPLMYPGTIHHFLNLKLDHGFADDGTADNCTTKAKLVVNKFNEALEYVDVLIVDEASMVSGELYDHALKTLGDRAKIILFIGDSYQLLPVDDEDSSIFLKDDIFHYKLTKVVRQADDNIIIAKSQELIKAMDQKTYYPSVNDYFVNITEDTEGIKLLKSNVELFELYFSDFKDKMTGAYTNKVVNQFNEYIRYTLYQETKFIADKDELVFQETYTDSKGNIIVSNGEIIEVATAKLTTDIDKFKIWKIVSKKNELGEAVRFNVLDPSSYNEFNDLLDKYCADAKIAKGYDRSKAWKKYFKLKEKYAKVRYNFSSTIHKLQGSTYQNMYFDMRGLDYFYRMNRDNVLRLVYVGITRASDQVFILQD
B2: the Speed (nt/s) stood at 365 nt/s.
